The values below are quoted from earlier work in patent US20170209415A1, “USE OF (+)-1-(3,4-DICHLOROPHENYL)-3-AZABICYCLO[3.1.0]HEXANE TO TREAT ADDICTIVE DISORDERS INCLUDING NICOTINE ADDICTION” (priority 2012, published 2017).

Amino acid sequences for entries named in this document (tags omitted).
UniProt Q01959, whole entry: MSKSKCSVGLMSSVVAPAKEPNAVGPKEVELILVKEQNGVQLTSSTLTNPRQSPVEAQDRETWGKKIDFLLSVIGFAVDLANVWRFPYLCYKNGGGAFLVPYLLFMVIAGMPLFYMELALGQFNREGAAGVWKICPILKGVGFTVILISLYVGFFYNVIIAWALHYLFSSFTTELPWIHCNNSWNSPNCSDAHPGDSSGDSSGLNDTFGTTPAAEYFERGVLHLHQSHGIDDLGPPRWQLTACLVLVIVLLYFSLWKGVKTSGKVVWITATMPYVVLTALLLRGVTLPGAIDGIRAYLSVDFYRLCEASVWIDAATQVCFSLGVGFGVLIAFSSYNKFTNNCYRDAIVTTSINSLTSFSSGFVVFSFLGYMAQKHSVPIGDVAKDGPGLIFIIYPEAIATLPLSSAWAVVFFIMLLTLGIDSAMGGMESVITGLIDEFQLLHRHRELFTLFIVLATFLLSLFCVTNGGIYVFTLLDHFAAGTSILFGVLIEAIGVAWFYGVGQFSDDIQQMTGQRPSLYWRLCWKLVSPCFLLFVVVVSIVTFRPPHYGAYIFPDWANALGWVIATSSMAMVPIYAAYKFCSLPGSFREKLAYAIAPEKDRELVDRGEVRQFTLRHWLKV
UniProt P23975, whole entry: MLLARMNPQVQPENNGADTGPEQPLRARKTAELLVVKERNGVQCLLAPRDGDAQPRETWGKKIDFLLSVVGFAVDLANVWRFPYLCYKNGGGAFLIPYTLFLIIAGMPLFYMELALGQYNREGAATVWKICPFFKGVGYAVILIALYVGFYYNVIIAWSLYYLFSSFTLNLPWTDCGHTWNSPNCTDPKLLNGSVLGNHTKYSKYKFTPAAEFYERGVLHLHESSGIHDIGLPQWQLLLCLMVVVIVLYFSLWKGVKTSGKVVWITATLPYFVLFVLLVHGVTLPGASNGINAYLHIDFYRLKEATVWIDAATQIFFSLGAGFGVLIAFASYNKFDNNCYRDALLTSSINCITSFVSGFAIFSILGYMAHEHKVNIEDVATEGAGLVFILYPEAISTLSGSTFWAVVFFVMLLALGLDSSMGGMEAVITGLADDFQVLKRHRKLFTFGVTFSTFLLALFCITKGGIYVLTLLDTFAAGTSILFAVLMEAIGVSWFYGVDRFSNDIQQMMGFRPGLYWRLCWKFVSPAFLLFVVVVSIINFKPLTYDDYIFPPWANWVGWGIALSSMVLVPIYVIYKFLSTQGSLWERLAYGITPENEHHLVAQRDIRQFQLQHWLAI

Usually IC50 stands for the concentration that gives 50% inhibition.

One data set addresses DA reuptake (Homo sapiens, UniProt Q01959). The following applies: read-out: IC50, DA reuptake inhibition; Schrieber, 2009; cited from earlier work.
The target in a further data set is NE reuptake (Homo sapiens, UniProt P23975). As to conditions: read-out: IC50, NE reuptake inhibition; Schrieber, 2009; cited from earlier work.

`NC1CCC(c2ccc(Cl)c(Cl)c2)c2ccccc21` (centres unmarked): the IC50 at DA reuptake was 3 nM; at NE reuptake it was 4 nM.
